Columns and labels:
[1] = test system: peptide DESGPGCMSCKCVLS (C-terminus of H-ras)
[2] = test system: peptide GKKKKKKSKTKCVIM (C-terminus of K-ras4B)
[3] = test system: peptide DDGTQGCMGLPCVVM (C-terminus of N-Ras)
[4] = test system: peptide KCVVL (C-terminus of CaRho1)

| Substance | prenylation of the peptide [1] | prenylation of the peptide [2] | prenylation of the peptide [3] | prenylation of the peptide [4] |
| --- | --- | --- | --- | --- |
| human FTase (hFTase) | + | + | + |  |
| human GGTase (hGGTase) |  | + |  | + |
